{"source": "patent US4122199A", "about": "“Amides of pyrrolidinoethylamine which can be used in treatment of coughs” (Pierre Fabre S.A., priority 1976, dated 1978)", "test_system": "mice", "assay_type": "in vivo", "conditions": "isotonic aqueous solution, hydrochloride", "description": "It is determined on mice, the products being administered orally, intraperitoneally, and intraveneously in isotonic aqueous solution.", "note": "Structures can show the parent of a compound that is named as a salt."}
{"smiles": "O=C(NCCN1CCCC1)C(c1ccccc1)c1ccccc1", "note": "[F 1459, N(2'-pyrrolidino-ethyl)-α,α-diphenyl acetamide hydrochloride]", "values": [{"measurement": "DL 50 intraperitoneal", "result": 178, "unit": "mg/kg"}]}
